The source of these data is PubChem BioAssay AID720506 (National Center for Advancing Translational Sciences (NCATS), 2013).

Chains of the proteins cited; added tags and fusions are not shown.
UniProt P35462, whole entry, looked up: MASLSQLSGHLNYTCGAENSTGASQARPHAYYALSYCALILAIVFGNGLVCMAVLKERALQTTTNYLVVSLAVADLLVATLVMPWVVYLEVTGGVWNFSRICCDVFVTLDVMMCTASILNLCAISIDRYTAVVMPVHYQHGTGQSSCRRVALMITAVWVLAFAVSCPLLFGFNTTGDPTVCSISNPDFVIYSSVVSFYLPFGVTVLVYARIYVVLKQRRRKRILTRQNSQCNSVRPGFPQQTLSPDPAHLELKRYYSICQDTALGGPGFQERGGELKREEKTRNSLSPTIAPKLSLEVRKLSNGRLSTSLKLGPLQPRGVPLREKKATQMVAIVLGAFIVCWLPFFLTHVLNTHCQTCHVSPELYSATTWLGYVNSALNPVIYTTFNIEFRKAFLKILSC

Only a part is listed here, and it is no random draw. Inconclusive results are not listed. Active and inactive are the calls of the source. Calls follow the shape of the dose curve; as a rule, active = well fitted activation curve with a large enough effect; inconclusive = small, poorly fitted or top-dose-only effect; inactive = flat fitted curve, though single readings scatter.
Potency is read from the fitted curve at half-maximal effect.

The test deals with D(3) dopamine receptor (Homo sapiens) (UniProt P35462). The test can be described thus: qHTS of D3 Dopamine Receptor Agonist: D3 Dopamine Receptor B-arrestin Agonist Confirmatory Assay. Also: nearly all actives have a fitted effect of over 70% in size. As to conditions: DiscoveRx D3 beta-arrestin cells, luminescence, 90 min. The text has this: D3 DARs represent a very important target for the treatment of several neuropsychiatric disorders. Indeed, one of the most promising therapeutic applications for the D3 DAR is in the area of addiction and related disorders. […] These findings have been observed with a number of addictive substances including cocaine, amphetamine, nicotine, and alcohol. […] Increased D3 DAR activity can thus lead to neuroprotective and neurorestorative actions in the CNS. […] This assay is used to confirm the activity of the identified D3 dopamine receptor agonist. Activation is the desired outcome for this assay. NIH Molecular Libraries Probe Production Centers Network [MLPCN] NIH Chemical Genomics Center [NCGC] MLPCN Grant: NS064831 Assay Submitter (PI): David Sibley
Freshly passaged DiscoveRx D3 cells are plated in 1536 well white, solid bottom plates at a density of 1500 cells/well in 3microl of complete media. After an overnight incubation at 37 degrees C in 5% CO2, cells are loaded with 23nl of test compound from the compound library (as well as dopamine controls) using a 1536 pintool and incubated at 37 degrees C for 90 minutes. Two microliters of DiscoveRx reagent is then added to all cells, and they are incubated for an additional 30 - 60 minutes at room temperature. Following incubation, luminescence is measured on a ViewLux CCD-based luminometer reader using a 20 sec exposure time.
(In general: Quantitative high-throughput screening tests each substance at several concentrations.)
With `CCCN1CCC[C@@H](c2cccc(O)c2)C1`, the Potency is active: 112 nM.

On to `CCCN1CCC[C@H](c2cccc(O)c2)C1`, for which the Potency is active: 158 nM.
